Measured values as given in ChEMBL document CHEMBL1138643, “Haloperidol: towards further understanding of the structural contributions of its pharmacophoric elements at D2-like receptors” (Bioorg Med Chem Lett, 2004).

Assay: Binding affinity for dopamine D2 receptor to that of dopamine D4 receptor

O=C(CCCN1CCC(c2ccc(Cl)cc2)CC1)c1ccc(F)cc1
Ratio: 0.6
